We go through one molecule from patent publication US11136409B2, “Compositions and methods for identification, assessment, prevention, and treatment of AML using USP10 biomarkers and modulators” (Dana-Farber Cancer Institute, Inc., priority 2016, dated 2021).

Structures are written as SMILES.

Assay [1] relates to Ba/F3-FLT3-ITD, MOM13-luc+, and MOLM14 cells. The following applies: HBX19818 with midostaurin or crenolanib, fixed-ratio; CI less than 1 = synergy; 25-90% growth inhibition (50-90% for MOLM14).
The test system of assay [2] is HEK 293T cells. The experiment in a line: FLT3 degradation in transfected HEK 293T cells. Particulars: 24 h treatment. The format is cell-based, human.
The subject of assay [3] is Ba/F3-FLT3-ITD cells expressing the TKD point mutations. The experiment in a line: Growth of Ba/F3-FLT3-ITD cells expressing TKD point mutations. In kind it is cell-based, murine. The following applies: approximately 24 hr treatment.
In assay [4] the test system is Ba/F3-FLT3-ITD cells. The experiment in a line: Proliferation of Ba/F3-FLT3-ITD cells. The format is cell-based, murine. The source says:
Nomo-1, P31-FUJ, and NB4 were obtained from Dr. Gary Gilliland. MV4, 11 cells were obtained from Dr. Anthony Letai. Hel, K562, THP, U937, TF-1 and K052 cells were purchased from the American Type Culture Collection (ATCC) (Manassas, Va., USA). […] Cell lines were submitted for cell line authentication and were authenticated within 6 months of manuscript preparation through cell line short tandem repeat (STR) profiling (DDC Medical, Fairfield, Ohio and Molecular Diagnostics Laboratory, Dana Farber Cancer Institute). […] PBMCs were generously provided by Dr. Steven Treon and Dr. Guang Yang.
The CellTiter-Glo® assay (Promega, Madison, Wis.) was used for proliferation studies and carried out according to manufacturer instructions. Cell viability is reported as percentage of control (untreated) cells, and error bars represent the standard error of the mean for each data point.

`CN(CCCNC(=O)c1ccc2nc3c(c(Cl)c2c1)CCCC3)Cc1ccccc1` [HBX19818, reference compound]: the “Combination index (CI) analysis” value in assay [1] is on record as “synergistic anti-proliferative effects”. Moreover, the “Concentration needed for FLT3 degradation relative to mutant FLT3-driven cells” value in assay [2] is “approximately 2 fold”. In addition, in assay [3], the “Potency against TKD point mutants versus Ba/F3-FLT3-ITD” value was “equipotent”. Moreover, the “Therapeutic window compared to parental Ba/F3 cells” value in assay [4] is given as about 2 fold.
